Results from patent publication US8981052B2, “JNK inhibitor molecules” (Xigen Inflammation Ltd., priority 2010, dated 2015).

Assay: Stability (half-life) of JNK inhibitors in human serum, UPLC-MS
Procedure: The experiment was performed as described by Tugyi et al. (Proc Natl Acad Sci USA, 2005, 413-418). The remaining intact peptide was quantified by UPLC-MS.

In the case of “GRKKRRQRRRPPRPKRPTTLNLFPQVPRSQD [SEQ ID NO: 196]”, the “sensitivity to proteolytic degradation” value (general statement in the introduction) was “quickly proteolytically degraded” and the “time until totally degraded into amino acids residues” value (human serum (50%; 10 and 50% in PBS 1×), 0.1 mM peptide) was ≤ 6 h.
